Protein sequences, listed by entry. Tags and fused reporters are not part of them.
UniProt O14842, whole entry: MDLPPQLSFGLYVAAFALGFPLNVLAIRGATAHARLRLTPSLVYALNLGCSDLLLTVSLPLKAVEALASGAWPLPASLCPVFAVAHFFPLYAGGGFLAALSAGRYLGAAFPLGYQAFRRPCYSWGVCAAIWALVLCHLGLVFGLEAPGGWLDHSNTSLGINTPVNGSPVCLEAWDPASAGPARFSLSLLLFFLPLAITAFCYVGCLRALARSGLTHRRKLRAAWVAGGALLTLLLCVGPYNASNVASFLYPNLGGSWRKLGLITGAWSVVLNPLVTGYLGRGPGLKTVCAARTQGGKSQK

In patent US8450522B2, “Conformationally constrained carboxylic acid derivatives useful for treating metabolic disorders” (Amgen Inc., priority 2008, dated 2013):

Biological target: GPR40 (Homo sapiens, UniProt O14842)
Experiment: Cell-based aequorin assay (CHO cells stably transfected with GPR40 and aequorin)
Conditions: read-out: Aequorin Ec50; activation of human GPR40, CHO cells, 0.01% HSA

COc1ccc(F)c(-c2ccc(COc3ccc4c(c3)C(C(C)C(=O)O)CC4)cc2C(C)(C)C)c1 (stereo not shown)
EC50: 0.1 to 1 µM
